The values below come from ChEMBL document CHEMBL2380195 (J Med Chem, 2013).

Sequences of proteins named here, by UniProt entry; tags and fusion partners are left off.
UniProt P23219, whole entry: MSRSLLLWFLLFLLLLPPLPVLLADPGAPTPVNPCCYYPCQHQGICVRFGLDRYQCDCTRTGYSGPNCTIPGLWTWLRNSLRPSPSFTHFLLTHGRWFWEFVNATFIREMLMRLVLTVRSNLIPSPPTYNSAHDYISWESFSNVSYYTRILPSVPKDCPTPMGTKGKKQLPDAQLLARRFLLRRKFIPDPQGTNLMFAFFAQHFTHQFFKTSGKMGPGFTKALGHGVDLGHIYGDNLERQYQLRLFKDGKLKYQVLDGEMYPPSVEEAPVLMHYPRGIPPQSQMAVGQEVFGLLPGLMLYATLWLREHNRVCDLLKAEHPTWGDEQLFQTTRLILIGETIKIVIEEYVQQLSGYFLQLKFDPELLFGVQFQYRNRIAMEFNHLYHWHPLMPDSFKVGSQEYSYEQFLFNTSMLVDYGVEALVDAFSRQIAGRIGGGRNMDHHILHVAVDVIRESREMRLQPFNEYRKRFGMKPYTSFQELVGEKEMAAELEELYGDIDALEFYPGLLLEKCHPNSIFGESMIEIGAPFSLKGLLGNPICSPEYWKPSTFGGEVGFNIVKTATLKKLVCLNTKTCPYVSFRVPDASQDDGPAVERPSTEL

Activity calls are given as the source filed them. The rule behind the calls is not given here.

Assay [1] has as its target T1, Prostaglandin G/H synthase 1 (Homo sapiens, UniProt P23219). The assay is described as follows: Reversible inhibition of COX-1 in human THP1 cells assessed as inhibition of arachidonic acid-induced TXB2 formation at 100 uM incubated for 30 mins followed by compound washout measured 30 mins post arachidonic acid challenge by radioimmunoassay. The settings on record: THP-1. Format: cell-based.

Assay [2] deals with T1, Prostaglandin G/H synthase 1. The assay is described as follows: Inhibition of COX-1 in human THP1 cells assessed as inhibition of arachidonic acid-induced TXB2 formation at 100 uM incubated for 30 mins prior to arachidonic acid challenge measured after 30 mins by radioimmunoassay relative to vehicle-treated control. It is filed as cell-based. The settings on record: THP-1.

Assay [3] has the same target. The assay is described as follows: Inhibition of COX-1 in human washed platelet assessed as rightward shift in 10 uM arachidonic acid-induced TXB2 formation at 0.01 to 100 uM incubated for 25 mins prior to arachidonic acid challenge measured after 30 mins by radioimmunoassay.
The target is the same in assay [4]. The assay is described as follows: Inhibition of COX-1 (unknown origin) in platelet rich plasma assessed as inhibition of collagen-induced platelet aggregation at 30 uM incubated for 5 mins prior to collagen challenge measured for 5 mins by aggregometric analysis relative to vehicle-treated control.
Assay [5] shares this target. The experiment in a line: Inhibition of COX-1 (unknown origin) in platelet rich plasma assessed as inhibition of arachidonic acid-induced platelet aggregation at 30 uM incubated for 5 mins prior to arachidonic acid challenge measured for 5 mins by aggregometric analysis relative to vehicle-treated control.
Assay [6] shares this target. The assay is described as follows: Inhibition of COX-1 (unknown origin) in platelet rich plasma assessed as inhibition of arachidonic acid-induced platelet aggregation at 10 uM incubated for 5 mins prior to arachidonic acid challenge measured for 5 mins by aggregometric analysis relative to vehicle-treated control.
Assay [7] addresses COX-1/COX-2 (Homo sapiens) (UniProt P35354+P23219). The experiment in a line: Selectivity ratio of IC50 for COX-2 in human whole blood to COX-1 in human whole blood. It is filed as tissue-based.
The target in assay [8] is Prostaglandin G/H synthase 2 (Homo sapiens) (UniProt P35354). The experiment in a line: Reversible inhibition of COX-2 in human MDA-MB-231 cells assessed as inhibition of arachidonic acid-induced PGE2 formation at 100 uM incubated for 30 mins followed by compound washout measured 30 mins post arachidonic acid challenge by radioimmunoassay.
For assay [9] the target is unchanged. The assay is described as follows: Inhibition of COX-2 in human MDA-MB-231 cells assessed as inhibition of arachidonic acid-induced PGE2 formation at 100 uM incubated for 30 mins prior to arachidonic acid challenge measured after 30 mins by radioimmunoassay relative to vehicle-treated control.

Take `Cc1onc(-c2ccc(Cl)o2)c1-c1ccccc1`: the inhibition entry in assay [1], in assay [3] and in assay [8] was “Active” throughout. The inhibition was > 90% in assay [2], 64.6% in assay [4], 97% in [5] and 70% in [9]. In [6], the inhibition result was “inactive”. For the same compound, the Ratio IC50 in [7] is > 200.
